PMC5793879 (Cancer cell, 2017)

Chains of the proteins cited; added tags and fusions are not shown. Residues count along the entry.
UniProt Q16611, 2-185 limits assumed: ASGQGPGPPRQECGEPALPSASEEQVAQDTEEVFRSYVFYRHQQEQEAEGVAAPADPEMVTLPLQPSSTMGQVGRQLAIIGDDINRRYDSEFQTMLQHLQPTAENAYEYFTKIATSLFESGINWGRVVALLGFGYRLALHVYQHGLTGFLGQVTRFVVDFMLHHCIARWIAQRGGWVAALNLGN

Biological target: BAK (Homo sapiens, UniProt Q16611)

O=C1C(=NNc2nccs2)C(c2ccccc2)=NN1c1nc(-c2ccccc2)cs1 [BTSA1]
direct activation of BAK: no capacity to directly activate
